Test results: ChEMBL document CHEMBL1145094, “A novel and selective 5-HT2 receptor agonist with ocular hypotensive activity: (S)-(+)-1-(2-aminopropyl)-8,9-dihydropyrano[3,2-e]indole” (J Med Chem, 2003)

Protein sequences, listed by entry. Tags and fused reporters are not part of them.
UniProt P14842, whole entry: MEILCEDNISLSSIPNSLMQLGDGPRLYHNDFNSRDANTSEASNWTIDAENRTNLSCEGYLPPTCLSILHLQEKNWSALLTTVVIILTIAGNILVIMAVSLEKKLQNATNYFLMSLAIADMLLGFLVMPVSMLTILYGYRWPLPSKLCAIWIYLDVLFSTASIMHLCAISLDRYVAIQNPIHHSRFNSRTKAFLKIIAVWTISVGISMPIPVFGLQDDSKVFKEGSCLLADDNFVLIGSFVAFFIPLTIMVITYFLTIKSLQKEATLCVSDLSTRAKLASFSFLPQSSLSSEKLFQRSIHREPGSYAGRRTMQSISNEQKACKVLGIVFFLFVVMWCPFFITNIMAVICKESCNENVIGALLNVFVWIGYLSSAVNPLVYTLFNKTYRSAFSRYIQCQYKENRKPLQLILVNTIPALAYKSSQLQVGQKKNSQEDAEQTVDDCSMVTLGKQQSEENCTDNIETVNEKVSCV

Molecular target: 5-hydroxytryptamine receptor 2A (Rattus norvegicus) (UniProt P14842)
Assay: In vitro efficacy against rat 5-hydroxytryptamine 2A receptor determined by using PI assay (Emax)

COc1cc(C[C@@H](C)N)c(OC)cc1I
Efficacy: 82%
